{"sequences": {"note": "Protein sequences, listed by entry. Tags and fused reporters are not part of them.", "UniProt P49356, whole entry": "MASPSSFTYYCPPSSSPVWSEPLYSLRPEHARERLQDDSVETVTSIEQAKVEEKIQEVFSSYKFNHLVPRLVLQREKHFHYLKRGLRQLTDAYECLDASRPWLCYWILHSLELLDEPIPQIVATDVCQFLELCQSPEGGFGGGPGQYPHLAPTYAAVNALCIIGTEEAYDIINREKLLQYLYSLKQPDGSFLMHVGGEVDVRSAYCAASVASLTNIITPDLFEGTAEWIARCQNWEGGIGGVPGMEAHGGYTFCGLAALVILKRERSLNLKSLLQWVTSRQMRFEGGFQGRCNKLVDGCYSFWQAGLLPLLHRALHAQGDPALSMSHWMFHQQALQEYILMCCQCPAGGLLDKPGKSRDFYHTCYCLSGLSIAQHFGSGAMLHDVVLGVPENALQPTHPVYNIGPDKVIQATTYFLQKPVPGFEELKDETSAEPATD"}, "source": "patent US20120108632A1", "about": "“[…] INHIBITORS FOR OCULAR HYPERTENSION CONTROL AND THE TREATMENT OF GLAUCOMA” (ALCON RESEARCH, LTD., priority 2006, published 2012)", "origin": "cited, not measured here", "target": "Ftase (Homo sapiens, UniProt P49356)", "details": "read-out: Ftase IC50; cited from earlier work"}
{"smiles": "Cc1nn(C)c(C)c1C(=O)N1CCN(Cc2nc3ccccc3n2CC(C)(C)C)CC1", "values": [{"measurement": "IC50", "value": 0.012, "unit": "µM"}]}
